Experimental data: ChEMBL document CHEMBL4602604, “A Selective and Brain Penetrant p38αMAPK Inhibitor Candidate for Neurologic and Neuropsychiatric Disorders That Attenuates Neuroinflammation and Cognitive Dysfunction” (J Med Chem, 2019)

Columns and labels:
Hepatocyte [1] = assay: Induction of CYP2B1 mRNA expression in rat primary hepatocytes at 0.5 to 50 uM incubated for 48 hrs by RT-PCR analysis; assay type: ADME, cell-based
Hepatocyte [2] = assay: Induction of CYP1A2 mRNA expression in rat primary hepatocytes at 0.5 to 50 uM incubated for 48 hrs by RT-PCR analysis; assay type: ADME, cell-based
Hepatocyte [3] = assay: Induction of CYP3A4 mRNA expression in human primary hepatocytes at 0.5 to 50 uM incubated for 48 hrs by RT-PCR analysis; assay type: ADME, cell-based
Hepatocyte [4] = assay: Induction of CYP2B6 mRNA expression in human primary hepatocytes at 0.5 to 50 uM incubated for 48 hrs by RT-PCR analysis; assay type: ADME, cell-based
[5] = Induction of CYP1A2 mRNA expression in dog primary hepatocytes at 0.5 to 50 uM incubated for 48 hrs by RT-PCR analysis; assay type: ADME, cell-based, Canis lupus familiaris, Hepatocyte

Measured: Activity

CN1CCN(c2cc(-c3ccncc3)c(-c3ccc4ccccc4c3)nn2)CC1 [MW-150]
Non-Toxic: Hepatocyte [1] | Hepatocyte [2] | Hepatocyte [3] | Hepatocyte [4] | [5]
